In patent publication US20230173067A1 (Seagen Inc., priority 2020, published 2023):

What was measured:
Format in all cases: in vivo, Mice
[1] = test system: CTG-0121 CRC PDX model; experiment: CTG-0121 HER2 positive CRC PDX model, tumor growth inhibition
Method: (§1) The TGI index is calculated for a particular time point (e.g., a specific number of days into an experiment or clinical trial) according to the following formula: […]
(§2) where “Tx Day 0” denotes the first day that treatment is administered (i.e., the first day that an experimental therapy or a control therapy (e.g., vehicle only) is administered) and “Tx Day X” denotes X number of days after Day 0. […] As a non-limiting example, in an experiment where study day 0 corresponds to “Tx Day 0” and the TGI index is calculated on study day 28 (i.e., “Tx Day 28”), if the mean tumor volume in both groups on study day 0 is 250 mm^3 and the mean tumor volumes in the experimental and control groups are 125 mm^3 and 750 mm^3, respectively, then the TGI index on day 28 is 125%.
(§3) Tucatinib was administered orally at a dose of 50 mg/kg twice per day for 28 days (study days 0-27). […] A vehicle-only group was included as a negative control.

[2] = test system: CTG-0784 CRC PDX model; experiment: CTG-0784 HER2 positive CRC PDX model, tumor growth inhibition
Method: as §1
(§4) where “Tx Day 0” denotes the first day that treatment is administered (i.e., the first day that an experimental therapy or a control therapy (e.g., vehicle only) is administered) and “Tx Day X” denotes X number of days after Day 0. Typically, mean volumes for treated and control groups are used. As a non-limiting example, in an experiment where study day 0 corresponds to “Tx Day 0” and the TGI index is calculated on study day 28 (i.e., “Tx Day 28”), if the mean tumor volume in both groups on study day 0 is 250 mm^3 and the mean tumor volumes in the experimental and control groups are 125 mm^3 and 750 mm^3, respectively, then the TGI index on day 28 is 125%.
as §3

[3] = test system: CTG-0383 CRC PDX model; experiment: CTG-0383 HER2 positive CRC PDX model, tumor growth inhibition
Method: as §1, §2, §3

[4] = test system: CTG-0137 esophageal cancer PDX model; experiment: CTG-0137 HER2 positive esophageal cancer PDX model, tumor growth inhibition
Method: as §1, §4, §3

[5] = test system: GXA 3038 gastric cancer PDX model; experiment: GXA 3038 HER2 positive gastric cancer PDX model, tumor growth inhibition
Method: as §1, §4, §3

[6] = test system: GXA 3039 gastric cancer PDX model; experiment: GXA 3039 HER2 positive gastric cancer PDX model, tumor growth inhibition
Method: as §1, §4, §3

[7] = test system: GXA 3054 gastric cancer PDX model; experiment: GXA 3054 HER2 positive gastric cancer PDX model, tumor growth inhibition
Method: as §1, §4, §3

[8] = test system: CTG-0927 HER2 positive cholangiocarcinoma PDX model; experiment: CTG-0927 HER2 positive cholangiocarcinoma PDX model, tumor growth inhibition; details: CTG-0927 cholangiocarcinoma PDX model
Method: as §1, §4, §3

[9] = test system: Calu-3 NSCLC xenograft model; experiment: Calu-3 HER2 positive NSCLC xenograft model, tumor growth inhibition
Method: as §1, §4
(§5) For the Calu-3 study, tucatinib was administered orally at a dose of 50 mg/kg twice per day for 21 days, beginning on study day 7. […] Seven doses of trastuzumab were administered. A vehicle-only group was included as a negative control. Three individual animals received dose holidays (one in the negative control group and two in the combination therapy group).

[10] = test system: NCI-H2170 NSCLC xenograft model; experiment: NCI-H2170 HER2 positive NSCLC xenograft model, tumor growth inhibition
Method: as §1, §4, §5
For the NCI-H2170 study, tucatinib was administered orally at a dose of 50 mg/kg twice per day for 21 days, beginning on study day 18. […] A vehicle-only group was included as a negative control.

Measured: effect on tumor growth (in words)

trastuzumab
inhibited tumor growth: all assays above
